Measured values reported in US10398647B2, “Hydrogel compositions and drug delivery systems comprising the same” (Industrial Technology Research Institute, priority 2016, dated 2019).

Tested on: BT474 breast cancer
Assay: In-vivo pharmacodynamics (PD) study, tumor growth inhibition
Settings: Day 28 after dosing, 50 mg/kg, BT474 breast cancer mouse
Experimental: The tumor volume (mm^3) was respectively measured on specific days after dosing to build tumor-volume variation curves. In accordance with the data of the tumor-volume variation curves, the tumor growth inhibition (TGI) was calculated and is shown in Table 4.
The tumor volume (mm^3) was respectively measured on specific days after dosing to build tumor-volume variation curves. In accordance with the data of the tumor-volume variation curves, the tumor growth inhibition (TGI) was calculated and is shown in Table 5 and FIG. 2.

Herceptin: Herceptin solution (20.0 mg/mL in PK, 10 mg/mL in PD) without hydrogel; antibody drug
TGI (% ± SEM): 52.7% and 52.7 ± 22.2%

Values joined by “and” are separate entries in the source; they are usually repeats but may differ in a detail not shown here. Identical values can stand only once.
